Patent publication US8906865B2, “Treatment of inflammation and/or endotoxic shock” (ISIS Innovation Limited, priority 2007, dated 2014)

Tested on: Murine peritoneal macrophages (PMθ)
Experiment: RANTES and TNFα transcript expression (qRT-PCR) in LPS/IFNγ-treated murine macrophages
Format: cell-based, mouse
Settings: 1 nM pre-treatment 1 h then LPS/IFNγ 15 h; n=1
Experimental: Murine peritoneal macrophages (PMθ) were cultured under various conditions: Untreated, LPS (100 ng/ml) and IFNγ (20 ng/ml) for 15 h, modified Chemerin13-human (1 nM) pre-treatment for 1 h then LPS/IFNγ for 15 h. The bar graphs show the mean expression of cytokine transcript determined by qRT-PCR and normalised to housekeeper, hypoxanthine phosphoribosyltransferase, HPRT. Experiments were performed with triplicate determinations for each treatment, n=1 independent experiments. p<0.01 **; p<0.05 * relative to LPS/IFNγ-treated samples unless otherwise stated. The sequence of the modified C13h peptide is NH2-FHSFYFPGQFAFS-COOH (Seq ID No: 43)—in this sequence the N terminal P in C13h has been replaced with the amino acid F, and the peptide is therefore referred to as modified C13h.
Total RNA was extracted using Qiagen RNeasy kits, reverse transcribed and subjected to qRT-PCR using the Sybr-Green method. Data was analysed using the 2-ΔΔCT method (Livak, K. J. & Schmittgen T. D. (2001), Methods 25:402-408).

“NH2-FHSFYFPGQFAFS-COOH (Modified C13h) [N terminal P in C13h replaced with F]” was tested, and the “RANTES transcript expression (FIG. 10)” value was “significantly reduced expression” and the “TNFα transcript expression (FIG. 10)” value was “significantly reduced expression”.
